Target: T1, rat synaptosomal NE Reuptake (Rattus norvegicus, UniProt Q63380)
T1 construct: rat synaptosomal 5-HT and NE Reuptake; from tissue; host or cells: rat synaptosomes (rat brain preparations)
Assay: Norepinephrine reuptake assay (rat synaptosomal NE uptake)
Type: biochemical
Conditions: read-out: NE uptake inhibition IC50

Chains of the proteins cited; added tags and fusions are not shown. Residues count along the entry.
UniProt Q63380, 1-617: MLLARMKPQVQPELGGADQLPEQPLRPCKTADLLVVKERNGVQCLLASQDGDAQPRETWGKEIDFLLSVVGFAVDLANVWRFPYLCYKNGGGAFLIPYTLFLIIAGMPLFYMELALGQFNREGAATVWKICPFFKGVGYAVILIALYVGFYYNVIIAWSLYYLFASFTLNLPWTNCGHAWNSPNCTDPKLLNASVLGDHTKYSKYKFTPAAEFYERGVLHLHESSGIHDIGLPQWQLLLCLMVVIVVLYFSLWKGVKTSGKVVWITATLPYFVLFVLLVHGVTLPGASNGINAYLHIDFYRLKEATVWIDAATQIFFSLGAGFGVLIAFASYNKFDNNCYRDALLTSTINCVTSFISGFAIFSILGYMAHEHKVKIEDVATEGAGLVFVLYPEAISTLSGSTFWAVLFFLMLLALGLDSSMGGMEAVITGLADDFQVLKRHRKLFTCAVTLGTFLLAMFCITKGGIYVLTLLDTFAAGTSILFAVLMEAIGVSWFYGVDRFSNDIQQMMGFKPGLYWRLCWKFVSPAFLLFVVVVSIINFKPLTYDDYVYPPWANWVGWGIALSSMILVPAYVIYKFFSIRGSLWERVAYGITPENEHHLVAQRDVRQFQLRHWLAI

COc1ccc(C(CN(C)C)C2(O)CCCCC2)cc1 (stereo not shown) [Venlafaxine, reference compound]
IC50: 0.64 µM
